The assay deals with male Sprague-Dawley rats. Nature of the assay: Gastrointestinal (GI) transit (charcoal meal) assays. In kind it is in vivo, rat. The following applies: antagonist SC 30 min before fentanyl 1 mg/kg SC; AG10-L2-Nal 35 µmol/kg (30 mg/kg); naloxegol dose not stated in text (30 and 100 mg/kg in Supp Fig. 10).

Molecules are shown by their SMILES.

Consider `C=CCN1CC[C@]23c4c5ccc(O)c4O[C@H]2[C@@H](OCCOCCOCCOCCOCCOCCOCCOC)CC[C@@]3(O)[C@H]1C5` [Naloxegol, reference compound], for which the “reversal of fentanyl-induced OIC” value is “effective in reversing both analgesia and OIC”.

Source of the values: PMC9226319, “Peripherally restricted transthyretin-based delivery system for probes and therapeutics avoiding opioid-related side effects” (Nature Communications, 2022).
